Key:
mu opioid receptor = mu opioid receptor (Rattus norvegicus, UniProt P33535); assay: Rat Brain Mu Opioid Receptor Binding Assay (and Version 2a, [3H]DAMGO); details: read-out: r Ki μ, rat forebrain membranes, margin of error 10-20%
[1] = system: novel environment-stressed mice; assay: In Vivo Assay-Stress-Induced Fecal Output (Fecal Output for 1 hr); details: for Fecal Output (# pellets) cpd: novel environment-stressed mice; for Fecal Output (# pellets) cpd / Fecal Output cpd % control / Fecal Output cpd % NES: 1 hr; for Fecal Output cpd % control: relative to acclimated control; for Fecal Output cpd % NES: relative to novel environment stress (NES) vehicle group
Description: This assay evaluates the fecal output in novel environment-stressed mice to that of acclimated controls.
Methods: Adult, male, Crl:CD-1(ICR) mice, weighing ˜30-35 g were used in these studies, with a minimum of 10 mice per dose group. One group of mice was assigned as acclimated, or “non-stressed” controls. These control mice were transported from colony housing, where they were housed 3/cage in polycarbonate cages with access to food and water ad lib. to the procedure room. The mice were removed from their home cages and individually housed in 20 cm wide×20 cm deep×15 cm tall cages, equipped with a wire mesh bottom where they remained for a 16-18 hr period of acclimation to their novel environment. Mice were allowed access to food and water ad lib. during acclimation. The other groups of mice were assigned as non-acclimated, or “stressed” treatment groups. Each mouse in each group was weighed and vehicle, or test compound, was intragastrically administered by oral intubation in 0.5% methylcellulose. Mice were allowed access to water only ad lib. during the test period. After compound administrations, acclimated (control) as well as non-acclimated (stressed) mice were individually housed in a 20 cm wide×20 cm deep×15 cm tall cage, with a wire mesh bottom. An absorbant cardboard is placed beneath the cages. The number of fecal pellets excreted by each mouse was determined at hourly intervals following placement of the mice in the individual cages. Raw Data=# of fecal pellets/mouse/hr. […]

Amino acid sequences for entries named in this document (tags omitted).
UniProt P33535, whole entry: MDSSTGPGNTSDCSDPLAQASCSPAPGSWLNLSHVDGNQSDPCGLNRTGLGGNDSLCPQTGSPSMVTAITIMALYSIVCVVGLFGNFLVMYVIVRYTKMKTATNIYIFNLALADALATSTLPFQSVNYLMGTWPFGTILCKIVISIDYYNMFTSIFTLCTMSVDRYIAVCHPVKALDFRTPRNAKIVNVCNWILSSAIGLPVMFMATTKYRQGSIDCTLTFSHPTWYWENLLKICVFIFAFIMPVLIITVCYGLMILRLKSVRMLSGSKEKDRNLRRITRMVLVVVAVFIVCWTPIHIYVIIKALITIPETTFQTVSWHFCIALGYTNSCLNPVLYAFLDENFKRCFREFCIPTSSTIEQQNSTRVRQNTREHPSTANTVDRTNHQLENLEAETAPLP
UniProt P35372, whole entry: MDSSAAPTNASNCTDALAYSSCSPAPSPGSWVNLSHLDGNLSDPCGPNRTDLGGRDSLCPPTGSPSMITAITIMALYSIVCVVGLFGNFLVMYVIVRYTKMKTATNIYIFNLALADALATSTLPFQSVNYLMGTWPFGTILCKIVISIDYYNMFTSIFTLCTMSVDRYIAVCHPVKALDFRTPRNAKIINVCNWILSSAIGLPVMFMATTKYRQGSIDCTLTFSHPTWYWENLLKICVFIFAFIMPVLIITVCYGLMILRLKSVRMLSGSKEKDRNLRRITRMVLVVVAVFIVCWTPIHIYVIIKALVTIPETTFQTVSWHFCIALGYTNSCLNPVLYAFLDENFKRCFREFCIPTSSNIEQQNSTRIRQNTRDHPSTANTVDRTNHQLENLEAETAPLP
UniProt P33533, whole entry: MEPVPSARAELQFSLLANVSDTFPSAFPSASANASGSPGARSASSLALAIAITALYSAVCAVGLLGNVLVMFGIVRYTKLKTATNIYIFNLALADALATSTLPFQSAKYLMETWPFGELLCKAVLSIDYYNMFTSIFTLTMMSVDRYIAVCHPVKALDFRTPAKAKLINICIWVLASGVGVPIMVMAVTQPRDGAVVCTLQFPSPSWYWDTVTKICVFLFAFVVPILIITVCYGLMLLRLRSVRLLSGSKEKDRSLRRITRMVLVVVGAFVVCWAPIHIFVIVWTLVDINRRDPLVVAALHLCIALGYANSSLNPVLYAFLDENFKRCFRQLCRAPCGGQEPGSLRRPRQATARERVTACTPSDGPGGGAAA

human mu opioid receptor = human mu opioid receptor (Homo sapiens, UniProt P35372); assay: Human Mu Opioid Receptor Binding Assay (CHO membranes, 3H-Damgo); details: read-out: hKi μ
[2] = target: mu opioid receptor (CHO-hMOR cell membranes) (Homo sapiens, UniProt P35372); assay: Mu Opioid Receptor Functional Assay: [35S]GTPγS Binding in CHO-hMOR Cell Membranes, Versions 1 and 2; details: for MOR GTP binding assay_v1 (% I): version 1, % inhibition of agonist-stimulated GTPγS binding; for MOR GTP assay_v1 % of Basal: version 1, basal binding = 100%
Experimental: CHO-hMOR cell membranes were purchased from Receptor Biology, Inc. (Baltimore, Md.). About 10 mg/ml of membrane protein was suspended in 10 mM TRIS-HCl pH 7.2, 2 mM EDTA, 10% sucrose, and the suspension kept on ice. One ml of membranes was added to 15 ml cold binding assay buffer containing 50 mM HEPES, pH 7.6, 5 mM MgCl2, 100 mM NaCl, 1 mM DTT and 1 mM EDTA. The membrane suspension was homogenized with a Polytron and centrifuged at 3,000 rpm for 10 min. The supernatant was then centrifuged at 18,000 rpm for 20 min. The pellet was resuspended in 10 ml assay buffer with a Polytron.
The membranes were preincubated with wheat germ agglutinin coated SPA beads (Amersham) at 25° C. for 45 min in the assay buffer. The SPA bead (5 mg/ml) coupled membranes (10 μg/ml) were then incubated with 0.5 nM [^35S]GTPγS in the assay buffer. […] A range of concentrations of receptor agonists was used to stimulate [^35S]GTPγS binding. Both basal and non-specific binding was tested in the absence of agonist; non-specific binding determination included 10 μM unlabeled GTPγS.
Compounds were tested for function as antagonists by evaluating their potential to inhibit agonist-stimulated GTPγS binding. Radioactivity was quantified on a Packard TopCount. The following parameters were calculated:
[formula] % Inhibition=(% stimulation by 1 μM SNC80−% stimulation by 1 μM SNC80 in presence of test compound)×100/(% Stimulation by 1 μM SNC80−100)
EC50 values were calculated using GraphPad Prism.

[3] = target: human delta subtype 2 opioid receptor (Homo sapiens, UniProt P41143); assay: Human Delta Opioid Receptor Binding Assay (CHO membranes, 3H-Naltrindole); details: read-out: hKi δ
Experimental: This assay is designed to test the ability of a compound to interfere with the binding of tritiated Naltrindole to the human delta subtype 2 opioid receptor. Membranes from Chinese Hamster Ovary cells expressing the human delta subtype 2 opioid receptor (Perkin Elmer #RBHODM400UA) are homogenized in assay buffer (50 mM Tris, pH 7.5 with 5 mM MgCl2) using a glass tissue grinder, Teflon pestle and a Steadfast Stirrer (Fisher Scientific). The concentration of membranes is adjusted to 100 μg/mL in assay buffer and 100 μL is dispensed into each well of the assay plate, a 96 well round bottom polypropylene plate. Compounds to be tested are solubilized in DMSO (Pierce), 10 mM, then diluted in assay buffer to 6× the desired final concentration. The ligand, ^3H-Naltrindole (Perkin Elmer #NET-1065) is also diluted in assay buffer to 6 nM. In a second 96 well round bottom polypropylene plate, known as the premix plate, 60 μL of the 6× compound is combined with 60 μL of 6 nM ^3H-Naltrindole. From this premix plate 50 μL is transferred to the assay plate containing the membranes, in duplicate. The assay plate is incubated for 30 min at room temperature. A GF/C 96 well filter plate (Perkin Elmer #6005174) is pretreated with 0.3% polyethylenimine for 30 min. […] Nonspecific binding is determined in the presence of 1 μM unlabelled Naltrindole (Sigma #N115).

delta opioid receptor = delta opioid receptor (Rattus norvegicus, UniProt P33533); assay: Rat Brain Delta Opioid Receptor Binding Assay ([3H]DPDPE); details: read-out: r Ki δ, rat forebrain membranes, margin of error 10-20%
Experimental: Male, Wistar rats (150-250 g, VAF, Charles River, Kingston, N.Y.) are killed by cervical dislocation, and their brains removed and placed immediately in ice cold Tris HCl buffer (50 mM, pH 7.4). The forebrains are separated from the remainder of the brain by a coronal transection, beginning dorsally at the colliculi and passing ventrally through the midbrain-pontine junction. After dissection, the forebrains are homogenized in Tris buffer in a Teflon® glass homogenizer. The homogenate is diluted to a concentration of 1 g of forebrain tissue per 80 mL Tris and centrifuged at 39,000×g for 10 min. The pellet is resuspended in the same volume of Tris buffer containing 5 mM MgCl2 with several brief pulses from a Polytron homogenizer. This particulate preparation is used for the delta opioid binding assays. Following incubation with the delta selective peptide ligand ˜4 nM [^3H]DPDPE at 25° C. for 2.5 h in a 96-well plate with total volume of 1 mL, the plate contents are filtered through Wallac filtermat B sheets on a Tomtec 96-well harvester. The filters are rinsed three times with 2 mL of 10 mM HEPES (pH 7.4), and dried in a microwave oven 2 min twice. To each sample area 2×50 μL of Betaplate Scint scintillation fluid (LKB) is added and analyzed on a LKB (Wallac) 1205 BetaPlate liquid scintillation counter.
The data are used to calculate either the % inhibition compared to control binding (when only a single concentration of test compound is evaluated) or a Ki value (when a range of concentrations is tested). % inhibition is calculated as: [(total dpm−test compound dpm)/(total dpm−nonspecific dpm)]*100. Kd and Ki values were calculated using GraphPad PRISM data analysis program.

[4] = target: delta opioid receptor (CHO-hδ cell membranes) (Homo sapiens, UniProt P41143); assay: Delta Opioid Receptor Functional Assay: [35S]GTPγS Binding in CHO-hδ Cell Membranes, Version 1; details: read-out: DOR GTP-binding Assay_v1 EC50
Experimental: CHO-hδ cell membranes were purchased from Receptor Biology, Inc. (Baltimore, Md.). 10 mg/ml of membrane protein suspended in 10 mM TRIS-HC pH 7.2, 2 mM EDTA, 10% sucrose.
Membranes were maintained at 4-8° C. A portion (1 ml) of membranes was added into 15 mL cold binding assay buffer. The assay buffer contained 50 mM HEPES, pH 7.6, 5 mM MgCl2, 100 mM NaCl, 1 mM DTT and 1 mM EDTA. The membrane suspension was homogenized with a Polytron for 2 times and centrifuged at 3000 rpm for 10 min. The supernent was then centrifuged at 18,000 rpm for 20 min. The pellet was saved in a tube and 10 ml assay buffer was added into the tube. The pellet and buffer were mixed with a Polytron.
The pellet membranes (20 μg/ml) were preincubated with SPA (10 mg/ml) at 25° C. for 45 min in the assay buffer. The SPA (5 mg/ml) coupled with membranes (10 μg/ml) was then incubated with 0.5 nM [^35S]GTPγS in the same HEPES buffer containing 50 μM GDP in total volume of 200 μl. Increasing concentrations of receptor agonists were used to stimulate [^35S]GTPγS binding. The basal binding was tested in the absent agonists and no specific binding was tested in the present 10 μM unlabeled GTPγS. The data were analyzed on a Top counter.
Data The % of Basal=(stimulate−non specific)*100/(basal−non specific). EC50 values were calculated using a Prism program.

In the case of `Cc1cc(O)cc(C)c1C[C@H](N)C(=O)N(C(C)C)[C@@H](C)c1nc(-c2ccccc2)c[nH]1`, the Ki (mu opioid receptor) is reported as 0.03 nM, the “Fecal Output (# pellets) cpd” value ([1]; 10 mg/kg oral) is reported as 3.5 pellets and the “Fecal Output cpd % control” value ([1]; 10 mg/kg oral) is reported as 97.2%. For the same compound, the “Fecal Output cpd % NES” value ([1]; 10 mg/kg oral) was 50.7%, the “# of pellets, Compound (m) 1.0” value ([1]; dose 1.0, oral, NES mice, fecal output 1 hr) was 7.6 and the “Fecal pellet output, Compound (% control) 1.0” value ([1]; dose 1.0, oral, NES mice, vs acclimated control) was 345.5 % control. For the same compound, the “Fecal pellet output, Compound (% NES) 1.0” value ([1]; dose 1.0, oral, vs vehicle NES group) was 79.17 % NES, the “# of pellets, Compound (m) 3.0” value ([1]; dose 3.0, oral, NES mice, fecal output 1 hr) was 7.2 and the “Fecal pellet output, Compound (% control) 3.0” value ([1]; dose 3.0, oral, NES mice, vs acclimated control) was 327.3 % control. The “Fecal pellet output, Compound (% NES) 3.0” value ([1]; dose 3.0, oral, vs vehicle NES group) was 75 % NES, the “# of pellets, Compound (m) 10.0” value ([1]; dose 10.0, oral, NES mice, fecal output 1 hr) was 4.2 and the “Fecal pellet output, Compound (% control) 10.0” value ([1]; dose 10.0, oral, NES mice, vs acclimated control) was 190.9 % control. For the same compound, the “Fecal pellet output, Compound (% NES) 10.0” value ([1]; dose 10.0, oral, vs vehicle NES group) was 43.75 % NES, the Ki (human mu opioid receptor) was 0.65 nM and the “MOR GTP binding assay_v1 (% I)” value [2] was 1.00%. The “MOR GTP assay_v1 % of Basal” value [2] was 694.00%, the Ki [3] was 81.3 nM and the Ki (delta opioid receptor) was 1.41 nM.
In the case of `Cc1cc(O)cc(C)c1C[C@H](N)C(=O)N(C(C)C)[C@H](C)c1nc(-c2ccccc2)c[nH]1`, the Ki (mu opioid receptor) is reported as 0.87 nM, the “Fecal Output (# pellets) cpd” value ([1]; 30 mg/kg oral) is reported as 5.0 pellets and the “Fecal Output cpd % control” value ([1]; 30 mg/kg oral) is reported as 160.7%. For the same compound, the “Fecal Output cpd % NES” value ([1]; 30 mg/kg oral) was 104.2%, the EC50 [4] was 56 nM and the “MOR GTP binding assay_v1 (% I)” value [2] was 1.00%. The “MOR GTP assay_v1 % of Basal” value [2] was 495.00% and the Ki (delta opioid receptor) was 2.6 nM.
For `CNC(=O)c1cc(C)c(C[C@H](N)C(=O)N(C)[C@@H](C)c2nc(-c3ccccc3)c[nH]2)c(C)c1`, the Ki (mu opioid receptor) was 4 nM, the EC50 [4] was 2320 nM and the “MOR GTP binding assay_v1 (% I)” value [2] was 27.00%. For the same compound, the “MOR GTP assay_v1 % of Basal” value [2] was 962.00% and the Ki (delta opioid receptor) was 604 nM.
